Broadly, the IC50 is the midpoint of a concentration-inhibition curve.

Protein sequences, listed by entry. Tags and fused reporters are not part of them.
UniProt P00519, whole entry: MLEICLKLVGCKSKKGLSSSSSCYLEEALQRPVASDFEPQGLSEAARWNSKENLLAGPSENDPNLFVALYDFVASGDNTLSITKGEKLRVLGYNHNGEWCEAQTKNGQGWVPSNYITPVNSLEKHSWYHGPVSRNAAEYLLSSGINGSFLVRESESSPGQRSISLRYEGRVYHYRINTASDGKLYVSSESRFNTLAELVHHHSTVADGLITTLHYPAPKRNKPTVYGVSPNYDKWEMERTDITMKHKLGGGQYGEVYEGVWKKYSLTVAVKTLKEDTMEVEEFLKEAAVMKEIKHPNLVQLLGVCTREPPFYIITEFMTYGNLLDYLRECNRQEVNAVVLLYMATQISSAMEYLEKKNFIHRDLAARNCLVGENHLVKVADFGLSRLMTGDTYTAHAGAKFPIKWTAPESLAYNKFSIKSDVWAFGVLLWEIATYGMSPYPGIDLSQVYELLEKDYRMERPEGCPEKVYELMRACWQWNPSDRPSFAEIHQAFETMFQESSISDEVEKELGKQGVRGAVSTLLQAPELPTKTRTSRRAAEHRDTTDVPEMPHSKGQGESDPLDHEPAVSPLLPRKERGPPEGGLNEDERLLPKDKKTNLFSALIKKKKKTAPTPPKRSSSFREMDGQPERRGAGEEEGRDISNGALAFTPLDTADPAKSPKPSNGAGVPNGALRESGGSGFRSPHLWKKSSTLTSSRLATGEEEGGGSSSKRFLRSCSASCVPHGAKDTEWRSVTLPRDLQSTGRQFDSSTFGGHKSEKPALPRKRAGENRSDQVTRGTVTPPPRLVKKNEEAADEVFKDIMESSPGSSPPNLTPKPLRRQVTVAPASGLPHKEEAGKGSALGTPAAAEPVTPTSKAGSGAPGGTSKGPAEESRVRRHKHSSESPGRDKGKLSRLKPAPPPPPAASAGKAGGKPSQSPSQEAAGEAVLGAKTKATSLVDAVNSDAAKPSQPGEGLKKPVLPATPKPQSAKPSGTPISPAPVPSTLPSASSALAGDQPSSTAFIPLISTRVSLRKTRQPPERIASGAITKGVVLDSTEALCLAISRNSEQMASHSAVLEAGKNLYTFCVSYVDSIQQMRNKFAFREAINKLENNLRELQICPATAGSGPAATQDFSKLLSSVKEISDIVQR

The source of these data is patent US10669246B2, “Benzothiazol compounds and methods using the same for treating neurodegenerative disorders” (1ST Biotherapeutics, Inc., priority 2017, dated 2020).

A value given as a limit tells only on which side of the number the result lay.

In the test the target is His-tagged recombinant human ABL1 (Homo sapiens (Human), UniProt P00519). Put plainly: c-abl kinase assay (ADP-Glo). The following applies: read-out: c-abl-IC50; Table 2. A general note: In ADP-Glo the light output rises with the ADP produced.
On to `Cc1ccncc1-c1ccc2sc(NC(=O)C3CC3)nc2c1` [Example 7, N-(5-(4-methylpyridin-3-yl)benzo[d]thiazol-2-yl)cyclopropanecarboxamide], for which the IC50 is over 10000 nM.
The figure for `CC(=O)c1cc(C)c(-c2ccc3sc(NC(=O)[C@@H]4C[C@@H]4F)nc3c2)cn1` [Example 21, (1S,2S)-N-(5-(6-acetyl-4-methylpyridin-3-yl)benzo[d]thiazol-2-yl)-2-fluorocyclopropane-1-carboxamide] is over 2000 nM.
Then `Cc1ccc2c(ccn2COCC[Si](C)(C)C)c1-c1ccc2sc(NC(=O)[C@@H]3C[C@@H]3F)nc2c1` [Example 25, (1S,2S)-2-fluoro-N-(5-(5-methyl-1-((2-(trimethylsilyl)ethoxy)methyl)-1H-indol-4-yl)benzo[d]thiazol-2-yl)cyclopropane-1-carboxamide], with over 2000 nM.
In the case of `Cc1ccncc1-c1ccc2nc(N)sc2c1` [Example 27, 6-(4-methylpyridin-3-yl)benzo[d]thiazol-2-amine], the IC50 is over 2000 nM.
The figure for `Cc1cc(C(C)O)ncc1-c1ccc2sc(NC(=O)[C@@H]3C[C@@H]3F)nc2c1` (stereo partly drawn) [Example 28, (1S,2S)-2-fluoro-N-(5-(6-(1-hydroxyethyl)-4-methylpyridin-3-yl)benzo[d]thiazol-2-yl)cyclopropane-1-carboxamide] is over 2000 nM; for `Cc1cc(CO)ncc1-c1ccc2sc(NC(=O)[C@@H]3C[C@@H]3F)nc2c1` [Example 29, (1S,2S)-2-fluoro-N-(5-(6-(hydroxymethyl)-4-methylpyridin-3-yl)benzo[d]thiazol-2-yl)cyclopropane-1-carboxamide] it is over 2000 nM; for `Cc1cccc(F)c1-c1ccc2sc(NC(=O)C3CC3)nc2c1` [Example 30, N-(5-(2-fluoro-6-methylphenyl)benzo[d]thiazol-2-yl)cyclopropanecarboxamide] it is over 2000 nM.
Then `Cc1ccc2[nH]ccc2c1-c1ccc2sc(NC(=O)[C@@H]3C[C@@H]3F)nc2c1` [Example 31, (1S,2S)-2-fluoro-N-(5-(5-methyl-1H-indol-4-yl)benzo[d]thiazol-2-yl)cyclopropane-1-carboxamide], with over 2000 nM.
Then `Cc1cccc(F)c1-c1ccc2sc(NC(=O)[C@H]3C[C@H]3CO)nc2c1` [Example 33, (1S,2R)-N-(5-(2-fluoro-6-methylphenyl)benzo[d]thiazol-2-yl)-2-(hydroxymethyl)cyclopropane-1-carboxamide], with over 2000 nM; and `CNc1nc2ccc(-c3cnccc3C)cc2s1` [Example 53, N-methyl-6-(4-methylpyridin-3-yl)benzo[d]thiazol-2-amine], with over 10000 nM; and `Cc1ccncc1-c1ccc2c(c1)sc(=N)n2C` [Example 54, 3-methyl-6-(4-methylpyridin-3-yl)benzo[d]thiazol-2(3H)-imine], with over 10000 nM.
Take `CNC[C@@H]1C[C@@H]1C(=O)Nc1nc2ccc(-c3c(C)cccc3F)cc2s1` [Example 71, N-(6-(2-fluoro-6-methylphenyl)benzo[d]thiazol-2-yl)-2-((methylamino)methyl)cyclopropane-1-carboxamide]: the IC50 is over 2000 nM.
Regarding `Cc1cc(F)ncc1-c1ccc2nc(NC(=O)[C@@H]3C[C@@H]3F)sc2c1` [Example 120, (1S,2S)-2-fluoro-N-(6-(6-fluoro-4-methylpyridin-3-yl)benzo[d]thiazol-2-yl)cyclopropane-1-carboxamide], the IC50 was 13.3 nM.
